Assay: Body weight and tolerability, WSU-Luc ibrutinib study (Example 12)
Assay type: in vivo, mouse
Details: Compound A 60 mg/kg PO QD 21 d; ibrutinib 20 mg/kg PO QD 21 d; alone or combined
Procedure: Experimental design: Female CB17 SCID mice (Taconic Biosciences; weight at treatment start was about 18 g) were inoculated subcutaneously in the flank (cell suspension) with 4.0×10^6 WSU-Luc cells. Tumor growth was monitored with vernier calipers. Tumor volume was calculated using the formula V=W^2×L/2, where V=volume, W=width and L=length of the tumor. When the mean tumor volume reached approximately 190 mm^3, the animals were randomized into treatment groups (n=8/group). […] Tumor growth and body weight were measured twice per week. Tumor growth inhibition and body weight change were calculated on Day 20 of treatment.

C=CC(=O)N1CCC[C@@H](n2nc(-c3ccc(Oc4ccccc4)cc3)c3c(N)ncnc32)C1 [ibrutinib]
% BW Change (Day Maximum): 10.4 (20) %
